Assay outcomes: PubChem BioAssay, National Center for Advancing Translational Sciences (NCATS)
Compounds with a hit are over-represented: about 0.59% of the library has one in this group of screens.
IL2 activator = IL-2 activation. IL-2 activation reporter assay, cell-based qHTS; stimulated with anti-CD3/CD4/CD28 beads; in transgenic mouse T cells. activation, % (series mostly up to about 46 µM). 0.065% of 360,000 active; in the data active means activation above about 50%; inconclusive means mostly about 30% to 49%; further: 0% is about no effect
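Unstimulated transgenic mouse T cells, 750 per well, received compound and, after 60 minutes, anti-CD3/anti-CD4 bead plus anti-CD28 stimulation. EGFP and DsRed were quantified after 18 hours.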
PKM2 activator = activators of human pyruvate kinase M2. 0.34% of 260,000 active. AID 1631. purified PKM2, Kinase-Glo ATP luminescence, activation; response scale: 0% is enzyme alone, no compound. Potency, µM (highest dose often 57.5 µM), without a hit: at the top dose activation, actives largely listed as activators; active means well fitted activation curve with a large enough effect; inconclusive means small, poorly fitted or top-dose-only effect; inactive means no such curve, though single readings can be large or run the other way; further: potency means the concentration at half of the fitted maximal effect; on the % scale 0 is the no-effect control and ±100 the full control effect; nearly all actives have a fitted effect of over 55% in size
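hPK-M2, >95% pure; 0.1 mM ADP / 0.5 mM PEP final; imidazole pH7.2 buffer w/ 7 mM MgCl2, 50 mM KCl; 1 h RT; Kinase-Glo lum. Intermediate enzyme activity for dual inhibitor/activator qHTS.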
AT treatment = candidate therapy for ataxia-telangiectasia. F2112 A-T fibroblasts, KAP-1 phosphorylation AlphaLISA; neocarzinostatin DNA damage 30 min before lysis. Potency, µM (titrated, usually from 57.5 µM), without a hit: top-dose activation, usual class: activators. 0.19% of 320,000 active. AID 485349; active means well fitted activation curve with a large enough effect; inconclusive means small, poorly fitted or top-dose-only effect; inactive means no such curve, though single readings can be large or run the other way; further: potency means the concentration at half of the fitted maximal effect; % of control where 0% means no effect; nearly all actives have a fitted effect of over 45% in size
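hTERT-immortalized A-T patient fibroblasts (F2112), 500 cells/well in OPTI-MEM, 1% FBS, got compounds for 60 min, then NCS for 30 min at 37C. Lysates were then assayed for phospho-KAP-1 by AlphaLISA (anti-pKAP1 donor, anti-KAP1 acceptor beads), 6 hr at 25C.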
Rango complex inh = inhibitors of Rango-importin beta complex formation. Q14974. Rango CFP/YFP FRET sensor + importin beta, 45 min. Potency, µM (titrated, usually from 92.2 µM), inactives show top-dose inhibition of complex formation. 0.031% of 340,000 active. AID 540263;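 further: potency means the concentration at half of the fitted maximal effect; 0% = DMSO wells and 100% = buffer wells lacking importin beta; nearly all actives have a fitted effect of over 15% in size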
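FRET biosensor (snurportin 1 IBB flanked by EYFP and cerulean), 50 nM, with compound 5 min, then 0.125 microM importin beta in PBS, 1 mM DTT, 0.02% Tween-20, 0.1% BSA. CFP/YFP ratio read after 45 min at room temperature; pre-read flags interference.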
Rango release inh = inhibitors of RanGTP-induced Rango-importin beta complex dissociation; O95149+P62826; Biochemical FRET Rango-importin beta, RanGTP-induced dissociation; Potency, µM (top dose mostly 46.1 µM), for inactives: at the top dose activity change, negative = inhibition; 0.071% of 340,000 active; further: potency means the concentration at half of the fitted maximal effect; % of control where 0% means no effect; nearly all actives have a fitted effect of over 45% in size
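FRET read at 45 min, room temperature: inhibitors block the CFP/YFP signal rise when RanGTP (0.6 uM Ran, 2 mM GTP, 0.2 uM RCC1) frees Rango (0.1 uM) from importin beta (0.25 uM). Pre-read after 5 min compound exposure flags interference.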
* hit, by the source's call; ? = inconclusive; . = no result; [ ] = remark or other dose. Unless noted, the call rests on the fitted dose curve.

Screens in order – IL2 activator	PKM2 activator	AT treatment	Rango complex inh	Rango release inh
[1] Cc1cc(N2CCCC2)nc2ccc(NC(=S)NCCCN3CCC(C)CC3)cc12
  -1.9	-2.2%	0.4%	2.5%	14.6µM*
[2] Cc1ccccc1Cn1c(C)nc2ccc([N+](=O)[O-])cc2c1=O
  -2.7	14.2%	11.0%	58µM*	0.5%
[3] Cc1cccc(Cn2c(C)nc3ccc([N+](=O)[O-])cc3c2=O)c1
  -1.1	15.3%[11.5 µM]	13.2%	4.5%	16.8%
[4] CN(/N=C/c1ccc(O)cc1O)c1ncc(C(F)(F)F)cc1Cl
  1.1	0.9%	-6.8%	-0.4%	44.7%
[5] Cc1csc(=O)n1CCC(=O)OCc1nnc(-c2ccc(Cl)cc2)o1
  -0.3	.	0.7%	0.2%	-1.6%
[6] Nn1c(SCc2ccc(F)cc2)nnc1-c1ccccn1
  -1.9	-3.4%	15.8µM*	-6.0%	28.5%
[7] COCCCNC(=O)/C(C#N)=C/c1c(N2CCN(c3ccc(OC)cc3)CC2)nc2c(C)cccn2c1=O
  -2.2	.	-40.0%	?	4.61µM*
[8] Cc1ccc(/C=C2/NC(=O)N(Cc3ccc(Br)cc3)C2=O)o1
  -0.5	1.58µM*	-4.0%	?	-14.0%
[9] Cc1ccc(/C=C2/NC(=O)N(Cc3ccccc3F)C2=O)o1
  -3.0	3.55µM*	-0.2%	-1.3%	-4.8%
[10] CCCN1C(=O)/C(=C/c2ccc(C)o2)NC1=S
  .	25.1µM*	19.9%	.	.
[11] CCN1C(=O)N/C(=C/c2ccc(C)o2)C1=O
  -0.5	?	7.7%	-0.1%	-7.7%
[12] Cc1onc(-c2ccccc2Cl)c1C(=O)NCc1ccc(F)cc1
  -1.2	0.1%[11.5 µM]	5.3%	-0.2%	-16.6%
[13] Cc1csc2c(N3CCN(C(=S)Nc4ccc(F)cc4F)CC3)ncnc12
  -0.1	-1.9%	16.7%	2.5%	-0.3%
[14] Cc1cn([C@H]2C[C@H](O)[C@@H](CNCc3cccn3-c3nccs3)O2)c(=O)[nH]c1=O
  -3.1	.	.	.	.
[15] C=CCN1c2ccccc2[C@]23C[C@@H](C(=O)OC)N(C(C)=O)C2=NC(C(=O)OC)=C(C(=O)OC)[C@H]13
  -0.3	-2.6%[11.5 µM]	12.6µM*	2.5%	-1.1%
[16] Cc1ccc(Cn2cccc(-c3nc4ccccc4s3)c2=O)cc1
  -1.2	-5.1%	28.2µM*	?	?
[17] O=c1c(-c2nc3ccccc3s2)cccn1Cc1ccccc1
  -2.3	-0.8%	?	?	?
[18] O=C(Nc1ccc2c(c1)OCO2)c1csc([C@@H]2O[C@H](CO)[C@H](O)[C@H](O)[C@H]2O)n1
  -0.2	.	.	.	.
[19] COc1cccc(C(=O)c2ccccc2NC(C)=O)c1
  -0.9	.	.	.	.
[20] O=C(NCc1ccc(F)cc1)N1CCN(S(=O)(=O)c2ccccc2F)CC1
  3.6	11.2µM*	1.2%	-0.4%	-5.4%
[21] O=C(NCc1cccc(Cl)c1)N1CCN(S(=O)(=O)c2ccccc2F)CC1
  -2.6	14.1µM*	-1.2%	4.1%	-0.1%
[22] COc1cc(C(=S)N2CCN(c3ccccc3Cl)CC2)cc(O)c1O
  1.4	3.55µM*	-8.2%	2.3%	?
[23] COc1ccc(C(=S)N2CCN(c3ccccc3Cl)CC2)cc1OC
  -2.6	-9.1%	17.6%	-0.5%	-7.6%
[24] O=C(CCCCCBr)N1CCC(CC2CC(c3ccc(Cl)cc3)=NO2)(C(=O)NCC2CCCCC2)CC1 (stereo unspecified)
  63.4*	0.2%	7.9%	7.1%	0.6%
[25] C[C@H]1CN=C(Nc2ccccc2)N1CCC1CCCC1
  -0.6	-4.9%	-9.2%	-2.7%	-3.2%
[26] O=C(C1CC(=O)N(c2ccc3c(c2)OCCO3)C1)N1CCN(S(=O)(=O)c2ccccc2F)CC1 (stereo unspecified)
  0.1	.	.	-0.3%	-5.0%
[27] O=C(NCc1ccccn1)C1CCN(S(=O)(=O)c2cccs2)CC1
  -2.2	?	1.4%	3.5%	35.8%
[28] O=C(NCc1ccccc1Cl)C1CCN(S(=O)(=O)c2cccs2)CC1
  0.0	10µM*	-6.6%	-2.8%	3.7%
[29] CCC(C)NC(=O)C1CCC(CNS(=O)(=O)c2ccccc2)CC1 (stereo unspecified)
  -0.4	.	-6.2%	-5.7%	1.5%
[30] COc1ccc(CNC(=O)c2cc3c(=O)n4ccccc4nc3n(Cc3cccnc3)c2=N)cc1
  94.5*	-6.9%	2.5%	?	?

Some of the entries above in another layout.
5. Cc1csc(=O)n1CCC(=O)OCc1nnc(-c2ccc(Cl)cc2)o1
  IL2 activator = -0.3	PKM2 activator = .	AT treatment = 0.7%	Rango complex inh = 0.2%	Rango release inh = -1.6%
30. COc1ccc(CNC(=O)c2cc3c(=O)n4ccccc4nc3n(Cc3cccnc3)c2=N)cc1
  IL2 activator = 94.5*	PKM2 activator = -6.9%	AT treatment = 2.5%	Rango complex inh = ?	Rango release inh = ?
